Source: BindingDB's records for doi:10.1021/bi1006354 (Beactica, 2010)

The chains behind the UniProt entries cited, without tags or fusion partners.
UniProt P58154, whole entry: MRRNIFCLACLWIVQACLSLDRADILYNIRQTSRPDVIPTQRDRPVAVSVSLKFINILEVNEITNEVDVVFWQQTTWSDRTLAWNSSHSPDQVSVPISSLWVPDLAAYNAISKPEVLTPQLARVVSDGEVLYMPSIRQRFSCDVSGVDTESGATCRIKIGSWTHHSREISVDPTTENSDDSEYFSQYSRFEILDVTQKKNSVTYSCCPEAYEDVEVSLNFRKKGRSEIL

Target: Acetylcholine-binding protein (Lymnaea stagnalis, UniProt P58154)
Test: Interaction Assay
Settings: pH 7.4; 25 °C

Structure (SMILES): CN1CCC[C@H]1c1cccnc1 [CAS_29790-52-1]
- Kd: 40.7 nM and 310 nM

Where “and” joins values, the source holds several entries; their conditions need not be identical. Identical values can stand only once.
